Measured values published in article PMC6400076 (Frontiers in Microbiology, 2019).

System: O=P(O)(O)O
Experiment: purified protein
Details: 2 mM NAD+, 50 mM G3P, pH 8.5, 25°C

## SpGAPDH (Streptococcus pyogenes MGAS8232)
  Km: 2900 ± 200 µM
  Vmax: 2.07e+06 µM/min/mg
  kcat: 3450 s⁻¹
  kcat/Km: 1.19e+06 M⁻¹ s⁻¹
